Results taken from patent US8314108B2, “5-(5-(2-(3-aminopropoxy)-6-methoxyphenyl)-1H-pyrazol-3-ylamino)pyrazine-2-carbonitrile, pharmaceutically acceptable salts thereof, or solvate of salts” (Eli Lilly and Company, priority 2008, dated 2012).
Structures can show the parent of a compound that is named as a salt.

System: HT-29 cells
Test: ECtfs (Two-Fold Sensitization) Assay, 3H-thymidine incorporation
Format: cell-based
Settings: 3 nM alone, without gemcitabine
Protocol: An inhibitor of Chk1 can potentiate the anti-proliferative activity of gemcitabine (or other cytotoxics) through abrogation of the intra-S phase checkpoint, resulting in sustained and increased DNA damage. The capacity for continued tumor cell proliferation after DNA damage can be analyzed by determining the ability of cells to replicate their DNA. […] In this assay, cells are treated with gemcitabine, and then with the compound of Example 2. Following a recovery period, cells are assayed for the ability to incorporate radioactive thymidine into DNA during S phase. The ECtfs parameter is a measure of the concentration of a Chk1 inhibitor necessary to reduce by half the GI90 concentration of gemcitabine, measured in this assay in the absence of Chk1 inhibition. HT-29 cells (obtained from ATCC), are grown in RPMI 1640 plus (Gibco™) 10% (v/v) heat inactivated FBS. These cells are plated at 1.3×10^3 per well on Corning Costar 96-well tissue culture plates. After plating the cells, the tissue culture plates are held at room temperature for 45 minutes, before returning to 37° C. Plates are incubated for 24 hours prior to gemcitabine addition. […] Plates are counted on a Topcount scintillation counter (PerkinElmer), at 1 minute per well. ^3H-thymidine counts per minute (cpm) are exported into Prism (GraphPad) for analysis and plotting. […]

COc1cccc(OCCCN)c1-c1cc(Nc2cnc(C#N)cn2)n[nH]1 [Example 2, 5-(5-(2-(3-Aminopropoxy)-6-methoxyphenyl)-1H-pyrazol-3-ylamino)pyrazine-2-carbonitrile dihydrogen chloride salt]
effect on the proliferation of HT29 cells: little effect
